These results are taken from ChEMBL document CHEMBL1155476, “A vHTS approach for the identification of beta-adrenoceptor ligands” (Bioorg Med Chem Lett, 2010).

The chains behind the UniProt entries cited, without tags or fusion partners.
UniProt P07550, whole entry: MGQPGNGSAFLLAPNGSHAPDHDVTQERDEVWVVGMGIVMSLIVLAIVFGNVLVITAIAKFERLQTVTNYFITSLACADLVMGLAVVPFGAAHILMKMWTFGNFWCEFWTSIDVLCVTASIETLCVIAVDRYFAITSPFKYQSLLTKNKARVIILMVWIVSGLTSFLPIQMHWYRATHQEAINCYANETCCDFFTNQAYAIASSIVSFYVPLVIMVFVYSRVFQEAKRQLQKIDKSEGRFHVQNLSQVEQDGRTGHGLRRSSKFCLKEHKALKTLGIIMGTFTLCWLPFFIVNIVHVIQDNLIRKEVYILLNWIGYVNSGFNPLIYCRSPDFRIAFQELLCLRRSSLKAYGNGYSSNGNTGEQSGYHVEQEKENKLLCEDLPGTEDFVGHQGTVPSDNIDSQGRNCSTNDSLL

For orientation: Ki means the equilibrium dissociation constant of an inhibitor or competing ligand from its target. Low values mean higher affinity, high ones lower affinity.

The target of the assay is Beta-2 adrenergic receptor (Homo sapiens, UniProt P07550). Nature of the assay: biochemical.

In turn, `C=CCc1ccccc1OCC(O)CN1CCC(CN2C(=O)c3cccc4cccc(c34)C2=O)CC1` (stereo unspecified) displayed a Ki of 80 nM.
